These results are taken from PubChem BioAssay (NCATS).

By UniProt entry, the sequences of proteins in these tests, tags left out. Where a name states a change or a piece, a line headed by the entry shows the natural chain unless it says otherwise.
UniProt P11712, whole entry, looked up: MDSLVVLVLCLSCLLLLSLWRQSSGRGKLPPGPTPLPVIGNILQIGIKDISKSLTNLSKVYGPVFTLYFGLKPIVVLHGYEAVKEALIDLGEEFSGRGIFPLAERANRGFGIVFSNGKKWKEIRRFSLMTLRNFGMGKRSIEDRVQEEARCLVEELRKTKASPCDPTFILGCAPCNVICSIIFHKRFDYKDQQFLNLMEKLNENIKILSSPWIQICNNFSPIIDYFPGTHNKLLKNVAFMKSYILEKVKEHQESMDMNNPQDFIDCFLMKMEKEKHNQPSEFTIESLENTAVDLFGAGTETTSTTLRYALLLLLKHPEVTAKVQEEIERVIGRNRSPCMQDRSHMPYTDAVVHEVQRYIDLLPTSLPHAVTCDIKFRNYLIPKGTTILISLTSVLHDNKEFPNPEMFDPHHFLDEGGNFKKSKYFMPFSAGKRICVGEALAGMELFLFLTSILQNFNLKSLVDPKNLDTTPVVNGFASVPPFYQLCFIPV
UniProt P33261, whole entry, looked up: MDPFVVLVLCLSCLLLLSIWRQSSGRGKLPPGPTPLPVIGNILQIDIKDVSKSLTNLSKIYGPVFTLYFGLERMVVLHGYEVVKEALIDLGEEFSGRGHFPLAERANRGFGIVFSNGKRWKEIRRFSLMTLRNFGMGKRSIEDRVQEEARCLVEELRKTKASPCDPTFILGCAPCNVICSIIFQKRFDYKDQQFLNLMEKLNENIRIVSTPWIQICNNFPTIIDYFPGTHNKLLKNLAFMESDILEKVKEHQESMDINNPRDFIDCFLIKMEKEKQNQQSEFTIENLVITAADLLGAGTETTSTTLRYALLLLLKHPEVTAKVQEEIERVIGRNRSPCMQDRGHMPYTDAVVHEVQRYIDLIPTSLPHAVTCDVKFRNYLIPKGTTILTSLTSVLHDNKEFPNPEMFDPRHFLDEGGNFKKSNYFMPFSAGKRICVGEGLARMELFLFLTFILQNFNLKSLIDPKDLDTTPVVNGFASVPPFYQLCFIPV
UniProt P10635, whole entry, looked up: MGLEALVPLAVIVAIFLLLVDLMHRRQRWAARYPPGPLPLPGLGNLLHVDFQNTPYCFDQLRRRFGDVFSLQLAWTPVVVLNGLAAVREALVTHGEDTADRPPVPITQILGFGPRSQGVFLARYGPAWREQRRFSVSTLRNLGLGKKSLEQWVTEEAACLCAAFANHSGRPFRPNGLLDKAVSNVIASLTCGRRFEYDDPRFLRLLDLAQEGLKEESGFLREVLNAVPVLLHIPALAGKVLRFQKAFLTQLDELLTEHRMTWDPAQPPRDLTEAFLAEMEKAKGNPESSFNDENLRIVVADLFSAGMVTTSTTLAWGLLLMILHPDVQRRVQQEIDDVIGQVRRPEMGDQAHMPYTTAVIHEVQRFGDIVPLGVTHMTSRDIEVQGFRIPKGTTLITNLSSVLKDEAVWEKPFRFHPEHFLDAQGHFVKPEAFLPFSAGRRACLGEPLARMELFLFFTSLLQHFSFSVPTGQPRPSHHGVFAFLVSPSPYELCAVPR
UniProt Q12809: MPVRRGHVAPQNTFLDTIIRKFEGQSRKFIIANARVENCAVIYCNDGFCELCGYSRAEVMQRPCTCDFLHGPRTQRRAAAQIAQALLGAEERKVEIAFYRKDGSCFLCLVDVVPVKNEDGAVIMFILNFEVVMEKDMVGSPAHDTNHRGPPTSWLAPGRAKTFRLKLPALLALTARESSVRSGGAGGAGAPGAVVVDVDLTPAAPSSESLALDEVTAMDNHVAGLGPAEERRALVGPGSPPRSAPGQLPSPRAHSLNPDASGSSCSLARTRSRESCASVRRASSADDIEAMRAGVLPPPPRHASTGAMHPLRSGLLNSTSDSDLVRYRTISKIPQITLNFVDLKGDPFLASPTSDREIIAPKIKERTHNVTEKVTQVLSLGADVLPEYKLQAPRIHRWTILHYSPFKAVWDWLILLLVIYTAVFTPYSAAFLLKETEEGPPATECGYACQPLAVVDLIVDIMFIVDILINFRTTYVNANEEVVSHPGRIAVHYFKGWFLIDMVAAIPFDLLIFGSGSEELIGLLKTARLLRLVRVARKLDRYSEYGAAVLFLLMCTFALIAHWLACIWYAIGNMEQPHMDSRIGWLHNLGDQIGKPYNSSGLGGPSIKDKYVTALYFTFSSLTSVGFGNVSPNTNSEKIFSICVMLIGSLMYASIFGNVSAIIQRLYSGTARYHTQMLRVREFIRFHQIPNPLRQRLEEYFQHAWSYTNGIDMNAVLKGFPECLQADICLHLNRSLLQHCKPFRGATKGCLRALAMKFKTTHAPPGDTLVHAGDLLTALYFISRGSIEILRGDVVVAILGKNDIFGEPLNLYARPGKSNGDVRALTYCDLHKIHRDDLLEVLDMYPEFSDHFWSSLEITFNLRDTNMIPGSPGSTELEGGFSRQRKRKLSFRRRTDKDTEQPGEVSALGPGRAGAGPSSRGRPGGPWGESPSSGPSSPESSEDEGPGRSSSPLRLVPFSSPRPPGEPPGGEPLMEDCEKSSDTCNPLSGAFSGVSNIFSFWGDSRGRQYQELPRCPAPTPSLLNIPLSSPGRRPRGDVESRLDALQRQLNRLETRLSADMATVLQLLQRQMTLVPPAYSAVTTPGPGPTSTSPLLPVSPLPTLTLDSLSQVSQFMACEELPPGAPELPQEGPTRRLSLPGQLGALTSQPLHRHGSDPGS
UniProt P19793: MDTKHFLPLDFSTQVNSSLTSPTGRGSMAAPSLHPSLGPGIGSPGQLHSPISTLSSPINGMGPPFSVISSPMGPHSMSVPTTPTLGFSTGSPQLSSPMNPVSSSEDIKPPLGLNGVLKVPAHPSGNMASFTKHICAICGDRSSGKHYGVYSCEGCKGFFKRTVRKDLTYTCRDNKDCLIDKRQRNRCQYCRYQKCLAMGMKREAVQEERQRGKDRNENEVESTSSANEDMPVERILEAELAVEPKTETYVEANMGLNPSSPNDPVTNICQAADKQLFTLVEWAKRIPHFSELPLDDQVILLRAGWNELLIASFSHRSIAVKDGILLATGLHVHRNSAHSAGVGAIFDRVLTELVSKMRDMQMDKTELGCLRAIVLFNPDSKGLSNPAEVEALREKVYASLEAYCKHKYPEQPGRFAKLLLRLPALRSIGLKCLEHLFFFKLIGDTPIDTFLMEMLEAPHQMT
UniProt O94782: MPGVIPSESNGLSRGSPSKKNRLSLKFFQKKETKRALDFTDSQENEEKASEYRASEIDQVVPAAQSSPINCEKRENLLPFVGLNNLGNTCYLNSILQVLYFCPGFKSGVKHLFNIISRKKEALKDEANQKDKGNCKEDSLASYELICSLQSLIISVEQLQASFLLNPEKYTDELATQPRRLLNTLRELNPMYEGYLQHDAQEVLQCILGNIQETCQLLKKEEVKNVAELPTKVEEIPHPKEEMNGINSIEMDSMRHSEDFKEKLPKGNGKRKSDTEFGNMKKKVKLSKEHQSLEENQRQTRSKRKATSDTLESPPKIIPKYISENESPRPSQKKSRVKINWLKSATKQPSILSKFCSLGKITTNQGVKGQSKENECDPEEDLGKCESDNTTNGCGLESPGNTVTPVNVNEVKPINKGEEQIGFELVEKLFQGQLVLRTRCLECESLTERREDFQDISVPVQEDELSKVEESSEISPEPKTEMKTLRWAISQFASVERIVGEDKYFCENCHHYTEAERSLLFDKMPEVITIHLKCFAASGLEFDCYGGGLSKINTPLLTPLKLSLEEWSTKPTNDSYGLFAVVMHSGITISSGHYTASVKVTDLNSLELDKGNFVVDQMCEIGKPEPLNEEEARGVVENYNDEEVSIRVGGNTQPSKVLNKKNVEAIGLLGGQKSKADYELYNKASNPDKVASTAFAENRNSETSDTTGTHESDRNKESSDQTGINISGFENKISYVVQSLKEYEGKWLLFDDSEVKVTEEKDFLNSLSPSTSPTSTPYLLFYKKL
UniProt P14618, whole entry, looked up: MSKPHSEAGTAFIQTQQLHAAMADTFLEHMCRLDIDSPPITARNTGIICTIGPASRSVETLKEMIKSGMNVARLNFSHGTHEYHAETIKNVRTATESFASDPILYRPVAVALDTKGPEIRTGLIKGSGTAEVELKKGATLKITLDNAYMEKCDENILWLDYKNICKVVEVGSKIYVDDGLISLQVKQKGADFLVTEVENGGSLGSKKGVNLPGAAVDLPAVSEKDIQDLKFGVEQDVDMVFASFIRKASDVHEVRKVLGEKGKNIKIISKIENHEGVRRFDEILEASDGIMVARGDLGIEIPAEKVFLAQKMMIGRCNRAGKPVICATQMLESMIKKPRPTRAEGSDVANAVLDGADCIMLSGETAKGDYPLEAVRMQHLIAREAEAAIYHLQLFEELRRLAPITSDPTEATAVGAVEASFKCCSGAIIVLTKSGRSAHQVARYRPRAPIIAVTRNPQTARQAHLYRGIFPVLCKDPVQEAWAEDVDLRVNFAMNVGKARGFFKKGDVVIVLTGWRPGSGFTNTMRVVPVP
UniProt Q9NUW8, whole entry, looked up: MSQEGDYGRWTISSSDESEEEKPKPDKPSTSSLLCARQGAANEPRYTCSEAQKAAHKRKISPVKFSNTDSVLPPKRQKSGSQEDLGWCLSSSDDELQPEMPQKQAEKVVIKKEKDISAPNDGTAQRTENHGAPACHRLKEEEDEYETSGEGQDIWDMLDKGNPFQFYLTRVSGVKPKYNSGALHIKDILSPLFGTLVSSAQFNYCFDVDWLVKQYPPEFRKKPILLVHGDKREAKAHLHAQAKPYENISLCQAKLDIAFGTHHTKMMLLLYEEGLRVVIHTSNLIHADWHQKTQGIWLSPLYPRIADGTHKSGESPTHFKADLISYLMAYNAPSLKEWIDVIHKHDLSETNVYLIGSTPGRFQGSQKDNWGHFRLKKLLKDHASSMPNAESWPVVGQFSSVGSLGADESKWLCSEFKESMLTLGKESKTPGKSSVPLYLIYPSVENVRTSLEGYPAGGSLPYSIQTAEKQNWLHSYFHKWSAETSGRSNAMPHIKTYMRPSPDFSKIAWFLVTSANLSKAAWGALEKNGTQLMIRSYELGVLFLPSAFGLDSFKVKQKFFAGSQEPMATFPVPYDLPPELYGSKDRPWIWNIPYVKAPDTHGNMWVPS
UniProt Q03181: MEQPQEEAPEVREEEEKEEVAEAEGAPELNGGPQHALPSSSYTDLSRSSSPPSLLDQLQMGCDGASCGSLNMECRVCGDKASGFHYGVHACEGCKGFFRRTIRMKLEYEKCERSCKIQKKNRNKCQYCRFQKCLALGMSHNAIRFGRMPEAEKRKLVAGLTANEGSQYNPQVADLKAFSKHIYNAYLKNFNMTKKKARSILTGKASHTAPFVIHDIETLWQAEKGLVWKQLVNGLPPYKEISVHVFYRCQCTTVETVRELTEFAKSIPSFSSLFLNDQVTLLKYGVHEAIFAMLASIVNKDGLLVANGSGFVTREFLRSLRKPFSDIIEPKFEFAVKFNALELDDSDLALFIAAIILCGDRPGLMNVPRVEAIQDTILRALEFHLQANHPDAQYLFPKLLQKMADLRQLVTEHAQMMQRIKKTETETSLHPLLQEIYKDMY
UniProt P07947, whole entry, looked up: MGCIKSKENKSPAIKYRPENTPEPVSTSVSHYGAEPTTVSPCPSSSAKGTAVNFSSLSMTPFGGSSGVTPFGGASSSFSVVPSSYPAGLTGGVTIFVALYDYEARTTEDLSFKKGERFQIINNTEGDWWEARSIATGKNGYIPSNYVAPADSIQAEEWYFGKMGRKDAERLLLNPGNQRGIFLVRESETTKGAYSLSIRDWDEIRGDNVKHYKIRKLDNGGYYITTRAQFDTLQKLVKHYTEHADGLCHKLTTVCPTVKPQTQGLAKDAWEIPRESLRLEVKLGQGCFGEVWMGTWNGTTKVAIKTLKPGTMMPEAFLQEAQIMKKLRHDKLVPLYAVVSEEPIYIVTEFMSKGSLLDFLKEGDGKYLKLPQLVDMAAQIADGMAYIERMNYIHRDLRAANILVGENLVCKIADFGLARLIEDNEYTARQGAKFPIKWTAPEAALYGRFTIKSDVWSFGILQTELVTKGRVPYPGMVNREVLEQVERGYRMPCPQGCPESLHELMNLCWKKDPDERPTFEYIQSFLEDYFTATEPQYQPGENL

For test [1], the target named is Cytochrome P450 2C9 (Homo sapiens) (UniProt P11712). Kind of test: qHTS Assay for Inhibitors and Substrates of Cytochrome P450 2C9 (AID 883). Further: on the % scale 0 is the no-effect control and ±100 the full control effect; nearly all actives have a fitted effect of over 60% in size. The note with it: recombinant CYP2C9, luciferin-H luminescence, 60 min; at 57.1 µM (top of the series) unless noted. For orientation: In qHTS, concentration-response curves come from the screen itself.
The target of test [2] is Cytochrome P450 2C19 (Homo sapiens) (UniProt P33261). Kind of test: qHTS Assay for Inhibitors and Substrates of Cytochrome P450 2C19 (AID 899). Further: nearly all actives have a fitted effect of over 60% in size. Further: potency means the concentration at half of the fitted maximal effect.
The target of test [3] is Cytochrome P450 2D6 (Homo sapiens) (UniProt P10635). The experiment in a line: qHTS Assay for Inhibitors and Substrates of Cytochrome P450 2D6 (AID 891). Further: nearly all actives have a fitted effect of over 60% in size. Further: potency means the concentration at half of the fitted maximal effect.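 On activity change, negative = inhibition: luciferin methyl ether substrate demethylated by CYP2D6 with NADPH regeneration; on the % scale 0 is the no-effect control and ±100 the full control effect.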
The target of test [4] is Voltage-gated inwardly rectifying potassium channel KCNH2 (Homo sapiens) (UniProt Q12809). The experiment in a line: qHTS Assay for Small Molecule Inhibitors of the Human hERG Channel Activity (AID 588834).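 Further: potency means the concentration at half of the fitted maximal effect; lower thallium flux fluorescence means stronger hERG block; nearly all actives have a fitted effect of over 50% in size.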 The note with it: U2OS BacMam hERG, FluxOR thallium flux fluorescence.
The nature of test [5]: qHTS assay for small molecule agonists of retinoid X receptor alpha signaling (AID 588544; calls by dose curve;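 on activation: 0% = DMSO basal wells and 100% = reference agonist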). To be noted: HEK293T RXRa-UAS-bla, beta-lactamase reporter, 18 h; 530 nm emission.
The target in test [6] is Retinoic acid receptor RXR-alpha (Homo sapiens) (UniProt P19793). Described as above. The note with it: HEK293T RXRa-UAS-bla, beta-lactamase reporter, 18 h; at 76.7 µM (top of the series).
A short description of test [7]: qHTS assay for small molecule antagonists of retinoid X receptor alpha signaling (AID 588546; active means well fitted inhibition curve with a large enough effect in the signal ratio, with a control signal flat, not every such curve was filed as active; the % refers to the signal ratio;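 further: cells stimulated with 9-cis-retinoic acid as agonist; on the % scale 0 is the no-effect control and ±100 the full control effect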). To be noted: HEK293T RXRa-UAS-bla, beta-lactamase ratio, antagonist mode; measured here: W530 green channel, cytotoxicity proxy. The method, boiled down: (§1)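 Beta-lactamase reporter inhibition, read as CCF4 fluorescence ratio (ex 405, em 460/530 nm) after 2 h at RT. HEK293T UAS-bla cells, 2500/well, were stimulated with 9-cis-RA at 500 or 100 nM final alongside test compound for 18 h at 37 C.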

The target of test [8] is Retinoic acid receptor RXR-alpha (Homo sapiens) (UniProt P19793). The description is as above. The note with it: HEK293T RXRa-UAS-bla, beta-lactamase ratio, antagonist mode. The method, boiled down:
as §1

Test [9] deals with Ubiquitin carboxyl-terminal hydrolase 1 (Homo sapiens) (UniProt O94782). The experiment in a line: Inhibitors of USP1/UAF1: Pilot qHTS (AID 504865).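 Further: rhodamine fluorescence freed from ubiquitin-rhodamine substrate followed over time; top concentration of the series differs between compounds; on the % scale 0 is the no-effect control and ±100 the full control effect; nearly all actives have a fitted effect of over 35% in size.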 To be noted: purified USP1/UAF1, Ub-rhodamine cleavage fluorescence. The method, boiled down: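 USP1/UAF1 complex (1nM) preincubated with compound 15 min at room temperature, then Ub-Rho substrate (150nM final) added. Fluorescence read kinetically at 480/540 nm, 6 reads every 60 seconds. Buffer: 50mM HEPES pH 7.8, 0.5mM EDTA, 0.1 mg/ml BSA, 1mM TCEP, 0.01% Tween-20.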

In test [10] the target is Pyruvate kinase PKM (Homo sapiens) (UniProt P14618). Kind of test: qHTS Assay for Activators of Human Muscle Pyruvate Kinase (AID 954; active means well fitted curve in the direction sought with a large enough effect, not every such curve was filed as active;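 further: 0% = uninhibited enzyme and -100% = no enzyme or full thiadiazolimine inhibition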). The note with it: purified human muscle pyruvate kinase, luciferase-coupled luminescence, 1 h; at 57.5 µM (top of the series). In short, it runs like this: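 Human PKM2 activity is measured as ATP generation, detected by luciferase-coupled luminescence. The enzyme (0.1 nM) acts on 0.5 mM PEP and 0.1 mM ADP for 1 h at ambient temperature; data are normalized to uninhibited and full-inhibition wells.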

Test [11] has as its target Tyrosyl-DNA phosphodiesterase 1 (Homo sapiens) (UniProt Q9NUW8). The experiment in a line: Confirmation Assay for Inhibitors of Tyrosyl-DNA Phosphodiesterase (TDP1) (AID 489007). Further: potency means the concentration at half of the fitted maximal effect; nearly all actives have a fitted effect of over 40% in size. To be noted: recombinant human TDP1 enzymatic activity, dose-response. The method, boiled down: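 Recombinant E. coli-expressed Tdp1 (1 nM final) was preincubated with compounds 15 min at room temperature, then reacted 5 min with 15 nM 5'-biotin/3'-phosphotyrosine-FITC DNA substrate; cleavage read as loss of AlphaScreen signal (10 ug/ml beads, 10 min).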

Test [12] addresses Peroxisome proliferator-activated receptor delta (Homo sapiens) (UniProt Q03181). Kind of test: qHTS assay for small molecule agonists of peroxisome proliferator-activated receptor delta signaling (AID 588534; calls by dose curve;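 further: 0% = DMSO basal wells and 100% = positive control agonist at 10 µM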). To be noted: HEK293T PPARdelta-UAS-bla, beta-lactamase ratio, 18 h; at 76.7 µM (top of the series).
The target in test [13] is Tyrosine-protein kinase Yes (Homo sapiens) (UniProt P07947). Kind of test: qHTS for small molecule inhibitors of Yes1 kinase: Primary Screen (AID 686947). Further: potency means the concentration at half of the fitted maximal effect; nearly all actives have a fitted effect of over 60% in size. To be noted: Yes1 kinase biochemical qHTS inhibition. In short, it runs like this: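 ADP-Glo luminescence readout; final 4 nM Yes1, 0.1 mM ATP, 0.3 mg/mL poly(E4Y), Tris pH 7.5, MgCl2, DTT, Brij-35. 20 min compound preincubation, 60 min reaction at RT. Normalized to DMSO wells with and without enzyme.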

Molecules are shown by their SMILES. “And” between values parts separate entries of the source, which are not always exact repeats. Identical values can stand only once. For some of these results: The hits were mostly taken out for another list; the other results follow. Inconclusive results are not listed. This is a selection; strong and weak results do not stand in their true shares. A structure can be active in one record and inactive in another. The source made the active and inactive calls. Unless noted, the call rests on the fitted dose curve; in most records, active means well fitted curve in the direction sought with a large enough effect; inconclusive means small, poorly fitted or top-dose-only effect, or another doubt; inactive means no such curve, though single readings can be large; an effect the other way counts as inactive or inconclusive.

Regarding `COc1cccc2c1C(=O)c1c(O)c3c(c(O)c1C2=O)C[C@@](O)(C(C)=O)C[C@@H]3O[C@H]1C[C@H](N)[C@H](O)[C@H](C)O1`, the activity change, negative = inhibition in test [1] is inactive: -3.75%. The Potency result in test [2] is “inactive”. Turning to `O=C(O)CCCC[C@@H]1SC[C@H]2NC(=O)N[C@H]12`, the activity change, negative = inhibition in test [1] is inactive: 0.505%. Also, the Potency entry in [3] and in test [2] was “inactive” throughout. On to `CN1CCCCC1CCN1c2ccccc2Sc2ccc(S(C)=O)cc21` (configuration not stated), for which the Potency in [4] was active: 8.91 µM. With `CN1CCC[C@H]1c1cccnc1`, the max response is -20.5% and 7.93% in test [5]; -12.1% and 0.794% in [7]; inactive: 0.416% and inactive: -24.7% in test [8]. The activation in [6] is inactive: 7.07% and inactive: 11.3%. Take `CC(C)COCC(CN(Cc1ccccc1)c1ccccc1)N1CCCC1` (configuration not stated): the Potency in test [4] is active: 0.398 µM. Turning to `CN1CCCN=C1/C=C\c1cccs1`, the activity change, negative = inhibition in [9] (at 54.9 µM (top of the series)) was inactive: -10.4%.

With `CCCCc1oc2ccccc2c1C(=O)c1cc(I)c(OCCN(CC)CC)c(I)c1`, the activity change, negative = inhibition was inactive: -0.63% in test [9] (at 54.9 µM (top of the series)) and inactive: -18.3% in test [9] (at 114 µM (top of the series)). With `CCN(CC)C(=S)SSC(=S)N(CC)CC`, the Potency in test [2] is active: 5.01 µM and active: 794 nM. `Cc1ccc(C(=O)O[C@@H](C(=O)O)[C@@H](OC(=O)c2ccc(C)cc2)C(=O)O)cc1` (tested in a mixture with another compound): the activity change, negative = inhibition in test [10] is inactive: -24.2%.

On to `O=C(O)C1=CC(=C(c2ccc(O)c(C(=O)O)c2)c2ccc(O)c(C(=O)O)c2)C=CC1=O`, for which the Potency in [11] was active: 16.2 nM and active: 22.4 nM and active: 57.6 nM.

For `C#C[C@@]1(O)CC[C@H]2[C@H]3CCC4=Cc5oncc5C[C@]4(C)[C@@H]3CC[C@@]21C`, the Potency in [3] is active: 25.1 µM. With `CC1=C(/C=C/C(C)=C/C=C/C(C)=C\C(=O)O)C(C)(C)CCC1`, in test [12], the activation was inactive: 5.66%. As for `O[C@@H](c1cc(C(F)(F)F)nc2c(C(F)(F)F)cccc12)[C@H]1CCCCN1`, in test [4], the Potency is active: 10 µM. On to `CCN1CCN(Cc2ccc(-c3cc4c(N[C@H](C)c5ccccc5)ncnc4[nH]3)cc2)CC1`, for which the Potency in test [13] is active: 0.0027 µM.

Consider `C1CCC(C(CC2CCCCN2)C2CCCCC2)CC1` (configuration not stated), for which the Potency in test [4] was active: 15.8 µM.
